# “Also recorded” adds a separate entry of the source.
# Test: glutathione-mediated cleavage of adduct at physiologically relevant glutathione concentration (LC-MS)
# Assay type: physicochemical
# Details: glutathione 5 mM (5 μL of 100 mM), 0° C., 4 h, pH 8.0
substance,measurement,value
GrB2-SH2 Domain L111C/Dibromomaleimide/Glutathione Adduct,cleavage of adduct regenerating GrB2-SH2 domain L111C,GrB2-SH2 domain L111C was the only protein species present; also recorded: quantitative yield

# From patent US10548982B2, “Reversible covalent linkage of functional molecules” (priority 2009, dated 2020)
